Here are results for 7 molecules from article PMC3794980, “Identification of Conserved and HLA Promiscuous DENV3 T-Cell Epitopes” (PLoS Neglected Tropical Diseases, 2013).

The structures appear in SMILES notation. Like-named read-outs stand apart in the source and are kept apart here.

Common to all, as to test: biochemical
Common to all, as to assay type: binding

The target of test [1] is DRB1*0101 (Homo sapiens, UniProt P01903+P01911, A100R/D57E/F55L/F60I/F76Y/I96L/L162R/M171V/P40L/Q125E/R42F/V115G/Y59C).
Test [2] has as its target DRB1*0301 (Homo sapiens, UniProt P01903+P01911, A100K/A102G/A103R/A169T/F55Y/I96L/K41T/L162R/M171V/P40S/Q125H/Q178H/Q39Y/R42S/S66N/T106N/T262R/W38E/Y61H).
Test [3] addresses DRB1*0401 (Homo sapiens, UniProt P01903+P01911, A100K/A169T/F76Y/I96L/K127E/L162R/M171V/N62H/P40V/Q125Y/R42H/S133A/S149N/S66Y/V115G/V209L/W38E).
For test [4], the target named is DRB1*0404 (Homo sapiens, UniProt P01903+P01911, A100R/A169T/F76Y/I96L/K127E/L162R/M171V/N62H/P40V/Q125Y/R42H/S133A/S149N/S66Y/V209L/W38E).
The target in test [5] is DRB1*0405 (Homo sapiens, UniProt P01903+P01911, A100R/A169T/D86S/F76Y/I96L/K127E/L162R/M171V/N62H/P40V/Q125Y/R42H/S133A/S149N/S66Y/V115G/V209L/W38E).
Test [6] addresses DRB1*0701 (Homo sapiens, UniProt P01903+P01911, A100R/A102G/A103Q/D57E/D86V/E43K/F76Y/K127E/L162R/M171V/P40G/Q125H/Q99D/R33Q/R42Y/R54Q/S133A/S66F/T210M/V115G/Y107V/Y59L/Y89S).
Test [7] addresses DRB1*0802 (Homo sapiens, UniProt P01903+P01911, A100R/A103L/A169T/F76Y/H45Y/I96F/K41T/L162R/M171V/P40S/Q125H/Q178H/Q39Y/Q99D/R218S/R42G/S66Y/V115G/W38E).
In test [8] the target is DRB1*0901 (Homo sapiens, UniProt P01903+P01911, A100R/A103E/D57H/D86V/F55Y/F60I/F76Y/I96F/K127E/L162R/M171V/P40D/Q125H/Q99R/R33Q/R42F/S133A/S66N/T210M/V115G/W38K/Y107V/Y59G/Y89S).
Test [9] has as its target DRB1*1101 (Homo sapiens, UniProt P01903+P01911, A100R/A169T/A87E/I96F/K41T/L162R/M171V/P40S/Q125H/Q178H/Q39Y/Q99D/R42S/S66Y/T262R/V115G/W38E).
In test [10] the target is DRB1*1302 (Homo sapiens, UniProt P01903+P01911, A100E/A169T/K41T/L162R/M171V/P40S/Q125H/Q178H/Q39Y/Q99D/R42S/S66N/T262R/V115G/W38E/Y61H).
Test [11] concerns the target DRB1*1501 (Homo sapiens, UniProt P01903+P01911).
Test [12] deals with DRB4*0101 (Homo sapiens, UniProt P01903+P13762, G164S). The following applies: read-out: Binding Affinity (nM) DRB4*0101.
Setting [13] is: read-out: Binding Affinity (nM) DRB1*0101.
The mark [14] stands for this setting: read-out: Binding Affinity (nM) DRB1*0405.
[15] abbreviates: read-out: Binding Affinity (nM) DRB1*0701.
The mark [16] stands for this setting: competitive inhibition of radiolabeled standard peptide, DRB1*0901, read-out: Binding Affinity (nM) DRB1*0901.
The mark [17] stands for this setting: competitive inhibition of radiolabeled standard peptide, DRB1*1302, read-out: Binding Affinity (nM) DRB1*1302.
The mark [18] stands for this setting: read-out: Binding Affinity (nM) DRB1*1101.

With `CC[C@H](C)[C@H](NC(=O)[C@H](CCCCN)NC(=O)[C@H](CCCCN)NC(=O)[C@H](CCC(=O)O)NC(=O)[C@H](CC(C)C)NC(=O)[C@@H]1CCCN1C(=O)[C@H](Cc1c[nH]cn1)NC(=O)[C@@H]1CCCN1C(=O)[C@H](CC(N)=O)NC(=O)[C@H](CCC(=O)O)NC(=O)[C@H](CC(C)C)NC(=O)[C@H](CC(=O)O)NC(=O)[C@H](C)NC(=O)[C@@H](N)CCCCN)C(=O)N[C@H](C(=O)N[C@@H](CCC(N)=O)C(=O)N[C@@H](Cc1c[nH]c2ccccc12)C(=O)O)[C@@H](C)O` [NS5 630-646], the IC50 was over 20000 nM in test [1] (setting [13]); 3 µM in [2]; over 20000 nM in [3] (read-out: Binding Affinity (nM) DRB1*0401); over 20000 nM in [4] (read-out: Binding Affinity (nM) DRB1*0404); over 20000 nM in [5] (setting [14]); over 20000 nM in [6] (setting [15]). Further, the IC50 in test [7] (read-out: Binding Affinity (nM) DRB1*0802) is over 20000 nM; in test [8] (setting [16]), over 20000 nM; in [9] it was 2590 nM; in [10] (setting [17]), over 20000 nM; in test [11], 1070 nM; in test [12], over 20000 nM.
Take `CC[C@H](C)[C@H](NC(=O)[C@H](CC(=O)O)NC(=O)[C@@H](N)[C@@H](C)O)C(=O)N[C@@H](CO)C(=O)N[C@@H](CCC(=O)O)C(=O)N[C@@H](CCSC)C(=O)NCC(=O)N[C@@H](C)C(=O)N[C@@H](CC(N)=O)C(=O)N[C@@H](Cc1ccccc1)C(=O)N[C@@H](CCCCN)C(=O)N[C@@H](C)C(=O)N[C@@H](CC(=O)O)C(=O)N[C@@H](CCCNC(=N)N)C(=O)N[C@H](C(=O)O)C(C)C` [NS3 409-423]: the IC50 in test [1] stood at 7720 nM; in test [2], 0.47 µM; in test [3], 1820 nM; in test [4], 12100 nM; in [5], 4660 nM; in test [6], 19000 nM. Moreover, the IC50 in test [7] is 5100 nM; in test [8] (setting [16]), 18000 nM; in test [9] (setting [18]), over 20000 nM; in [10] (setting [17]), 4060 nM; in [11], 10800 nM; in test [12], over 20000 nM.
With `CSCC[C@H](NC(=O)[C@@H](NC(=O)[C@H](CCC(N)=O)NC(=O)[C@H](Cc1ccccc1)NC(=O)[C@H](CC(N)=O)NC(=O)[C@H](CCCCN)NC(=O)[C@@H]1CCCN1C(=O)[C@H](CC(N)=O)NC(=O)[C@H](CCCCN)NC(=O)CNC(=O)[C@@H]1CCCN1C(=O)[C@@H](N)CCC(=O)O)[C@@H](C)O)C(=O)N1CCC[C@H]1C(=O)NCC(=O)N[C@H](C(=O)O)[C@@H](C)O` [NS3 101-115], the IC50 in [1] was found to be 201 nM; in test [2], 5.44 µM; in [3] it was 1470 nM; in test [4] it was 410 nM; in [5], 725 nM; in [6], 1480 nM. The IC50 in test [7] was 18400 nM; in test [8] (competitive inhibition of radiolabeled standard peptide, '-' distinct from ND, read-out: Binding Affinity (nM) DRB1*0901), 1860 nM; in test [9] (setting [18]), over 20000 nM; in test [10] (competitive inhibition of radiolabeled standard peptide, '-' distinct from ND, read-out: Binding Affinity (nM) DRB1*1302), 2090 nM; in test [11], 447 nM; in [12], over 20000 nM.
As to `CC[C@H](C)[C@H](NC(=O)[C@H](CO)NC(=O)[C@@H]1CCCN1C(=O)[C@@H](NC(=O)[C@H](Cc1ccccc1)NC(=O)[C@H](Cc1c[nH]c2ccccc12)NC(=O)[C@@H](NC(=O)[C@@H](NC(=O)[C@H](CCCCN)NC(=O)CNC(=O)[C@H](C)NC(=O)[C@H](Cc1ccccc1)NC(=O)[C@H](CC(=O)O)NC(=O)[C@@H](N)[C@@H](C)O)[C@@H](C)O)C(C)C)C(C)C)C(=O)N[C@@H](CCCCN)C(=O)O` [NS3 353-367], the IC50 amounted to 1070 nM in test [1]; 16.6 µM in [2]; 4190 nM in test [3]; 858 nM in test [4]; 884 nM in test [5]; 1620 nM in test [7]. In addition, the IC50 in [8] (setting [16]) is 2150 nM; in [10] (setting [17]) it was over 20000 nM; in test [11], 2690 nM; in [12], over 20000 nM.
For the molecule `CC[C@H](C)[C@H](NC(=O)[C@@H]1CCCN1C(=O)CNC(=O)[C@H](C)NC(=O)[C@H](CC(C)C)NC(=O)[C@H](CO)NC(=O)[C@H](CCCCN)NC(=O)[C@@H]1CCCN1C(=O)[C@@H](NC(=O)[C@@H](NC(=O)[C@H](CCSC)NC(=O)[C@H](CC(=O)O)NC(=O)[C@H](CO)NC(=O)[C@H](CCC(=O)O)NC(=O)[C@@H](N)CC(C)C)[C@@H](C)CC)[C@@H](C)CC)C(=O)O` [NS1 237-251], the IC50 in test [1] is 1580 nM; in test [2] it was 8.1 µM; in test [3], 11400 nM; in test [4], 15700 nM; in test [5] (setting [14]), over 20000 nM; in [6], 5240 nM. Also, the IC50 in [7] was 10600 nM; in test [8] it was 4700 nM; in test [9], 9610 nM; in test [10] it was 4500 nM; in test [11], 9580 nM; in test [12], over 20000 nM.
As to `CC(C)C[C@H](NC(=O)[C@H](CCCCN)NC(=O)[C@@H](NC(=O)[C@H](CCCCN)NC(=O)[C@H](CCC(N)=O)NC(=O)[C@H](Cc1ccc(O)cc1)NC(=O)[C@H](CCC(=O)O)NC(=O)[C@@H](N)[C@@H](C)O)[C@@H](C)O)C(=O)N[C@@H](CC(N)=O)C(=O)N[C@@H](CC(=O)O)C(=O)N[C@@H](Cc1c[nH]c2ccccc12)C(=O)N[C@@H](CC(=O)O)C(=O)N[C@@H](Cc1ccccc1)C(=O)N[C@H](C(=O)N[C@H](C(=O)O)C(C)C)C(C)C` [NS3 393-407], the IC50 in test [1] was found to be 7650 nM; in test [2], 1.66 µM; in test [3] it was 10800 nM; in test [4], 8120 nM; in test [5], 7330 nM; in [6], 456 nM. The IC50 in test [7] was 8800 nM; in test [8] it was 11500 nM; in test [9], 5940 nM; in [10], 17800 nM; in [11] (read-out: Binding Affinity (nM) DRB1*1501) it was over 20000 nM; in test [12], over 20000 nM.
Regarding `CC[C@H](C)[C@H](NC(=O)[C@@H](NC(=O)[C@H](CCCNC(=N)N)NC(=O)[C@H](CC(=O)O)NC(=O)[C@H](C)NC(=O)[C@H](CCCCN)NC(=O)[C@H](Cc1ccccc1)NC(=O)[C@H](CC(N)=O)NC(=O)[C@H](C)NC(=O)CNC(=O)[C@H](CCSC)NC(=O)[C@@H](N)CCC(=O)O)C(C)C)C(=O)N[C@@H](CC(=O)O)C(=O)N1CCC[C@H]1C(=O)N[C@@H](CCCNC(=N)N)C(=O)O` [NS3 413-427], the IC50 is over 20000 nM in test [1] (setting [13]); 0.261 µM in [2]; 40 nM in [3]; 3110 nM in test [4]; 1760 nM in [5]; over 20000 nM in test [6] (setting [15]). Further, the IC50 in test [7] is 11200 nM; in test [8] (read-out: Binding Affinity (nM) DRB1*0901), over 20000 nM; in test [9] it was 7130 nM; in [10] it was 3230 nM; in [11], 9350 nM; in [12], over 20000 nM.
